Measurements reported in ChEMBL document CHEMBL1212824, “A type-II kinase inhibitor capable of inhibiting the T315I "gatekeeper" mutant of Bcr-Abl” (J Med Chem, 2010).
pIC50: −log10 of the molar value.

Assay: cells
Conditions: Mus musculus, BaF3

Compound: COc1ccc(Nc2ncnc(-c3cccnc3Nc3cc(NC(=O)c4ccc(CN5CCN(C)CC5)cc4)ccc3C)n2)cc1
- pIC50: 6.30
